Source: patent US6664231B1, “Anti-fungal peptides” (priority 1993, dated 2003)
Where two headings read alike, the source gives them in different places.

Tests used:
in vitro = in vitro ADME, rat or human serum
Procedure: For these serum stability experiments, peptides were prepared by solid phase peptide sythesis and purified to 94% or greater purity as described in Example 1. Blood was collected from metaphane anesthesized rats by aortic bleed into Vacutainer™ tubes and allowed to clot at room temperature for approximately 30 minutes, then centrifuged at 3000 rpm (about 1000×g) for 10 minutes at room temperature and the serum aspirated. In addition, frozen human serum (North American Biologics, Inc., Miami, Fla., cat. no. 2140, lot no. 94115) was thawed at room temperature and filtered through a 0.45 μm membrane before use.
A 1 mg/mL solution of an exemplary XMP peptide to be tested was added to an equal volume of either rat or human serum described above and maintained at 37° C. At 0, 1, 2, and 4 hours, 100 μL were removed and processed by solid phase extraction for HPLC analysis as follows. Serum samples were prepared for HPLC using C-18 Sep-Pak cartridges (1 mL cartridge with 100 mg of sorbent, Waters Corp., Milford, Mass.). One hundred μL of serum sample were added to an equal volume of 1% TFA and mixed for 30 seconds on a Vortex mixer. The sample was then applied to a C-18 Sep-Pak cartridge that had been conditioned by washing with 1 mL of methanol followed by 1 mL Milli-Q water. Weakly reed components were eluted by washing with 1 mL of 0. 1% TFA. The bound peptide was eluted with two volumes of 250 μL 80% acetonitrile/0.065% TFA.
The material eluted from the Sep-Pak cartridge was analyzed on a Michrom Ultaafast Microprotein Analyzer equipped with a 150 mm×1 mm, 5μ particle, 300 Å pore C-8 Zorbax column. The column oven was set to 40° C., the flow rate was 100 μL/minute, and injection volumes were typically 5-10 μL. HPLC was performed using 5% acetonitrile/0.1% TFA in water as mobile phase A, and 80% acetonitrile/0.065% TFA as mobile phase B. The eluate was monitored spectiophotometrically at 214 nm. Peptide standards were dissolved in mobile phase A at 0. 1 mg/mL. The gradient was 25-35% B/10 minutes followed by a 5 minute wash step of 100% B and reequilibration at 25% B for 10 minutes.

[1] = system: Candida albicans (SLU-1 and ATCC strains); assay type: cell-based
Outline: (§1)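 Peptides were serially diluted against fungi suspended at 5.0×10^3/mL in Sabouraud's dextrose broth. Metabolic activity was followed with the REDOX indicator Alamar Blue, and the lowest concentration keeping blank-level blue color, together with the next two higher, was plated for 18-48 hours to find the MFC (99.9% kill).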

[2] = system: Candida glabrata ATCC 2001; assay type: cell-based
Outline: as §1

[3] = system: Candida parapsilosis ATCC 22019; assay type: cell-based
Outline: as §1

[4] = system: Fusarium solani ATCC 36031; assay type: cell-based
Outline: as §1

[5] = system: Trychophyton rubrum ATCC 28188; assay type: cell-based
Outline: as §1

Candida glabrata = assay type: cell-based
Procedure: (§2) In additional experiments, a fluorescence-activated cell sorter (FACS) based assay was developed to test the fungicidal activity of the peptides. […] Difco) agar. Several colonies were picked from the agar plate and inoculated into 5 mL of Sabouraud's Dextrose media in a sterile 10 mL polypropylene tube. The fungal cultures were incubated for about 18 hours at 30° C. […] The culture were centrifuged at 3000 rpm for 5 minutes (Sorvall RT 6000B). After centrifugation, the supernatant was decanted leaving the fungal pellets in the centrifuge tubes. The pellets were resuspended in 15 mL of SDB. Both suspensions were combined into one tube and mixed to generate a stock culture. […] After determining the concentration of the stock, appropriate dilutions were made with Sabouraud's Dextrose media to obtain 100 mL of 1×10^6 cell/mL. […] After the 1 hour incubation, all the tubes were centrifuged at 3000 rpm for 5 minutes. […] Louis, Mo.) in Dulbecco's PBS (DPBS, GIBCO, Grand Island, N.Y.) except the autofluorescence control, which was resuspended in DPBS alone. The tubes were mixed and incubated in the dark at room temperature for at least 20 minutes. […] The settings were adjusted appropriately to the following approximate parameters: Cells were analyzed (10,000 cells/tube) and their respective fluorescence determined. […] The population of dead (i.e., propidium iodide stained) fungal cells was determined by a fluorescence threshold between the negative control and positive control.

Candida lusitaniae = assay type: cell-based
Procedure: as §2

[6] = system: Crytococcus Neoformans 13690; assay type: cell-based, Cryptococcus neoformans
Procedure: as §2

[7] = serum, 37° C., serum; read-out: serum half-life of peptide by HPLC
[8] = serum, half-life of peptide in serum as detected by HPLC analysis; read-out: HPLC Peptide in Serum t ½ (converted)

| SMILES | half-life at 0.5 mg/mL (in vitro; [7]) [h] | half-life at 0.5 mg/mL (in vitro; [8]) [h] | half-life at 0.5 mg/mL (in vitro; 37° C., serum; read-out: serum half-life of peptide by HPLC) [h] | Minimum Fungicidal Concentration, Candida albicans ATCC 10231 [1] [µg/mL] | Minimum Fungicidal Concentration, Candida albicans ATCC 18840 [1] [µg/mL] | Minimum Fungicidal Concentration, Candida albicans ATCC 26555 [1] [µg/mL] | Minimum Fungicidal Concentration, Candida albicans ATCC 44808 [1] [µg/mL] | Minimum Fungicidal Concentration, Candida albicans ATCC 90028 [1] [µg/mL] | Minimum Fungicidal Concentration, Candida albicans SLU-1 [1] [µg/mL] | Minimum Fungicidal Concentration, Candida glabrata ATCC 2001 [2] [µg/mL] | Minimum Fungicidal Concentration, Candida parapsilosis ATCC 22019 [3] [µg/mL] | Minimum Fungicidal Concentration, Fusarium solani ATCC 36031 [4] [µg/mL] | Minimum Fungicidal Concentration, Trychophyton rubrum ATCC 28188 [5] [µg/mL] | Candida glabrata IC50 (Candida glabrata) [µg/mL] | Candida lusitaniae IC50 (Candida lusitaniae) [µg/mL] | Activity of Peptides on Crytococcus Neoformans 13690, IC50 [6] [µg/mL] |
| --- | --- | --- | --- | --- | --- | --- | --- | --- | --- | --- | --- | --- | --- | --- | --- | --- |
| CC[C@H](C)[C@H](NC(=O)[C@H](CC(C)C)NC(=O)[C@H](Cc1c[nH]c2ccccc12)NC(=O)[C@H](CCCCN)NC(=O)[C@@H](NC(=O)[C@H](CCCCN)NC(=O)[C@H](CO)NC(=O)[C@@H](N)CCCCN)C(C)C)C(=O)N[C@@H](CCC(N)=O)C(=O)N[C@@H](CC(C)C)C(=O)N[C@@H](Cc1ccccc1)C(=O)N[C@@H](Cc1c[nH]cn1)C(=O)N[C@@H](CCCCN)C(=O)N[C@@H](CCCCN)C(N)=O [XMP.97] | 0.983 | 1 | – | – | – | – | – | – | – | – | – | – | – | – | – | – |
| CC[C@H](C)[C@H](NC(=O)[C@H](CC(C)C)NC(=O)[C@H](Cc1c[nH]c2ccccc12)NC(=O)[C@H](CCCCN)NC(=O)[C@@H](N)CCCCN)C(=O)N[C@@H](CCC(N)=O)C(=O)N[C@@H](CC(C)C)C(=O)N[C@@H](CCCCN)C(=O)N[C@@H](CCCCN)C(N)=O [XMP.327] | 0.667 | 1.1 | – | – | – | – | – | – | – | – | – | – | – | – | – | – |
| CC[C@H](C)[C@H](NC(=O)[C@H](CC(C)C)NC(=O)[C@H](Cc1c[nH]c2ccccc12)NC(=O)[C@H](CCCCN)NC(=O)[C@H](CCCCN)NC(C)=O)C(=O)N[C@@H](CCC(N)=O)C(=O)N[C@@H](CC(C)C)C(=O)N[C@@H](CCCCN)C(=O)N[C@@H](CCCCN)C(N)=O [XMP.331] | – | 4 | 4.67 | – | – | – | – | – | – | – | – | – | – | – | – | – |
| CC[C@H](C)[C@H](NC(=O)[C@H](CC(C)C)NC(=O)[C@H](Cc1c[nH]c2ccccc12)NC(=O)[C@@H](CCCCN)NC(=O)[C@H](N)CCCCN)C(=O)N[C@@H](CCC(N)=O)C(=O)N[C@@H](CC(C)C)C(=O)N[C@H](CCCCN)C(=O)N[C@H](CCCCN)C(N)=O [XMP.342] | – | 5.2 | – | 10.0 | 5.0 | 2.5 | 5.0 | 5.0 | 5.00 | >10.0 | >10.0 | 1.25 | 10.0 | 11.00 | 3.24 | 0.95 |
| CC[C@@H](C)[C@@H](NC(=O)[C@@H](CC(C)C)NC(=O)[C@@H](Cc1c[nH]c2ccccc12)NC(=O)[C@H](N)CCCCN)C(=O)N[C@H](CCC(N)=O)C(=O)N[C@H](CC(C)C)C(=O)N[C@H](Cc1ccccc1)C(=O)N[C@H](Cc1c[nH]cn1)C(=O)N[C@H](CCCCN)C(=O)N[C@H](CCCCN)C(N)=O [XMP.365] | – | 26.3 | – | 5.0 | 5.0 | 1.25 | 5.0 | 5.0 | 2.5 | >10.0 | 10.0 | 0.16 | 10.0 | 15.26 | 1.25 | 0.03 |
| CC[C@@H](C)[C@@H](NC(=O)[C@@H](CC(C)C)NC(=O)[C@@H](Cc1c[nH]c2ccccc12)NC(=O)[C@@H](CCCCN)NC(C)=O)C(=O)N[C@H](CCC(N)=O)C(=O)N[C@H](CC(C)C)C(=O)N[C@H](Cc1ccccc1)C(=O)N[C@H](Cc1c[nH]cn1)C(=O)N[C@H](CCCCN)C(=O)N[C@H](CCCCN)C(N)=O [XMP.366] | – | 14 | – | 10.0 | >10.0 | 10.0 | >10.0 | 10.0 | 10.0 | >10.0 | >10.0 | 10.0 | >10.0 | 21.00 | 3.03 | 0.47 |
| CC[C@@H](C)[C@@H](NC(=O)[C@@H](CCC(N)=O)NC(=O)[C@@H](CC(C)C)NC(=O)[C@@H](Cc1ccccc1)NC(=O)[C@@H](Cc1c[nH]cn1)NC(=O)[C@@H](CCCCN)NC(=O)[C@H](N)CCCCN)C(=O)N[C@H](CC(C)C)C(=O)N[C@H](Cc1c[nH]c2ccccc12)C(=O)N[C@H](CCCCN)C(N)=O [XMP.367] | – | 52.4 | – | 5.0 | 2.5 | 2.5 | 10.0 | 5.0 | 2.5 | >10.0 | 10.0 | 0.31 | >10.0 | 20.00 | 1.25 | 0.05 |
